46 compounds from PubChem BioAssay AID652257 (The Scripps Research Institute Molecular Screening Center, 2013) can be followed below.

Protein sequences, listed by entry. Tags and fused reporters are not part of them.
UniProt Q99873, whole entry, looked up: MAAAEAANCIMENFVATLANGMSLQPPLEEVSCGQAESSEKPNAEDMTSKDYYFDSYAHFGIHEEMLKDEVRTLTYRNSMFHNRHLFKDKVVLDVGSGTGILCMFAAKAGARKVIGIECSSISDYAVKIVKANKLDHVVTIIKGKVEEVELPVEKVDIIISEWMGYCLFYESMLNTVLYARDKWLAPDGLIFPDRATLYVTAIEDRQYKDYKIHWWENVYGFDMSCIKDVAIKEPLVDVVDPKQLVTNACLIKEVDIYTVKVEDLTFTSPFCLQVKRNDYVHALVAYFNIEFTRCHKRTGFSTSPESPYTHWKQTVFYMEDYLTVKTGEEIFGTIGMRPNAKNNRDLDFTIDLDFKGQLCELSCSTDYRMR

SMILES strings stand for the structures. This is a selection; strong and weak results do not stand in their true shares. Activity calls are given as the source filed them.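 The calls were made as follows: active = inhibition above about 21% made by adding two undisclosed values (limit read from the data); inactive = the rest.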

The assay addresses Protein arginine N-methyltransferase 1 (Homo sapiens) (UniProt Q99873). In words: human PRMT1 activity-probe blockers – biochemical, fluorescence polarization, primary screen (AID 652257). The settings on record: recombinant PRMT1, activity-based probe fluorescence polarization; at 2.79 µM; active compounds read high.
As to `O=C(O)COc1ccc([As](=O)(O)O)cc1[N+](=O)[O-]`, the inhibition is inactive: -3%. `Nc1ccccc1[As](=O)(O)c1ccccc1`: the inhibition is inactive: 0.12%. As to `NC(=O)Nc1ccc([As](=O)(O)O)cc1`, the inhibition is inactive: -3.12%.

`CN(C(=O)Cc1ccccc1)[C@@H]1CC[C@]2(CCCO2)C[C@H]1N1CCCC1`: the inhibition was inactive: -2.23%. Take `CCOP1(=S)c2c(C)nn(CCC#N)c2N=C(c2ccc(F)cc2)N1C` (stereo unspecified): the inhibition was inactive: -0.38%. `N#CCCN(C(=O)COC(=O)C(O)(c1ccccc1)c1ccccc1)c1ccc(F)cc1`: the inhibition is inactive: -2.2%. In the case of `CN(C(=O)Cc1ccc(Cl)c(Cl)c1)[C@H]1CC[C@@]2(CCCO2)C[C@@H]1N1CCCC1`, the inhibition is inactive: 0.78%.

With `CN(C)C(=O)c1cc([N+](=O)[O-])cc2c1-c1c(cc([N+](=O)[O-])cc1[N+](=O)[O-])C2=O`, the inhibition is inactive: 5.74%.

With `O=[N+]([O-])c1ccc2c(c1)nnn2O`, the inhibition was inactive: 0.89%. The same measure for `O=C(OC1CN2CCC1CC2)c1ccc(Cl)cc1` (stereo unspecified): inactive: 5.99%. The same measure for `CS(=O)(=O)c1ccc(Cl)c(NC(=O)COC(=O)C(O)(c2ccccc2)c2ccccc2)c1`: inactive: -2.6%; for `COc1cc(C(=O)NCC2(N3CCOCC3)CCCCC2)cc(Cl)c1OC(C)C`: inactive: 3.17%. Then `O=[As](O)(O)c1cccnc1`, with inactive: -3.61%; and `O=[As](O)(c1cccc(O)c1)c1cccc(O)c1`, with inactive: -2.59%. With `Cc1cccc(OCC(=O)OC2CN3CCC2CC3)c1` (stereo unspecified), the inhibition is inactive: -0.28%. The same measure for `Cc1ccc(NCCc2c([N+](=O)[O-])cc([N+](=O)[O-])cc2[N+](=O)[O-])cc1`: inactive: 1.4%; for `Nc1cccc2c([As](=O)(O)O)cccc12`: active: 55.5%. Take `CCCOP(=S)(Nc1nc(N)cc(=O)[nH]1)OCCC`: the inhibition was inactive: -3.75%. On to `CCOP(=O)(Nc1cccc2ccccc12)OCC`, for which the inhibition was inactive: -0.99%.

As for `COc1cc(C2NCCC3(OCCO3)C2(C)C)cc(OC)c1OC` (stereo unspecified), the inhibition was inactive: -3.19%. Then `CCOP(=O)(NC(=NC(C)c1ccccc1)NC(C)c1ccccc1)OCC` (stereo unspecified), with inactive: -0.46%; and `CCC1=CC2Cc3nc4ccc(Cl)cc4c(N)c3C(C1)C2` (stereo unspecified), with inactive: 3.04%.

On to `O=P1(Nc2ccccn2)COc2ccccc2OC1`, for which the inhibition is inactive: -1.13%.

As to `CN(CCCl)Cc1cc(Cl)c(NC2=NCCN2)c(Cl)c1`, the inhibition is inactive: 0.52%.

In the case of `CCOP(=O)(Nc1ccc(C)cn1)OCC`, the inhibition is inactive: -1.06%.

In the case of `CC(C)(C)C(=O)NC(Sc1ncccn1)C(Cl)(Cl)Cl` (stereo unspecified), the inhibition is active: 47.2%. As to `Clc1n[nH]nc1-c1nn[nH][15n]1`, the inhibition was inactive: 0.98%. Regarding `O=P1(N(CCCl)CCCl)NCCC(C(F)(F)F)O1` (stereo unspecified), the inhibition was inactive: 4.23%. On to `COc1ccccc1CNC(=O)COC(=O)C(O)(c1ccccc1)c1ccccc1`, for which the inhibition was inactive: 1.13%.

In the case of `CN(C(=O)Cc1ccc(Cl)c(Cl)c1)C1CCCC[C@@H]1N1CCCC1` (stereo partly specified), the inhibition was inactive: -2.3%. As to `CN(C(=O)Cc1ccc(Cl)c(Cl)c1)[C@@H]1CCCC[C@H]1N1CCCC1`, the inhibition is inactive: -1.28%. Consider `CC(C)/C=N\N=C(\N)N[N+](=O)[O-]`, for which the inhibition is inactive: 0.86%.

`CC1(CBr)Cn2c(nc3ccccc3c2=O)S1` (stereo unspecified): the inhibition was inactive: 9.02%. Then `Cc1ccc(C(=O)OC2CN3CCC2CC3)cc1` (stereo unspecified), with inactive: 1.4%; and `CC1CCC(C(C)C)C(OP(=O)(Nc2ccccn2)c2ccccc2)C1` (stereo unspecified), with inactive: 1.87%. For the compound `Cc1nn(-c2ccccc2)c2c1P(=O)(N1CCOCC1)N(C)C(c1ccccc1)=N2` (stereo unspecified), the inhibition was inactive: 1.62%. With `CN(C)C1(CNC(=O)c2ccc(S(C)(=O)=O)cc2)CCCCC1`, the inhibition was inactive: 3.17%. Turning to `CCCC1OP(=O)(Nc2ccccc2)OCC1CC` (stereo unspecified), the inhibition was inactive: 1.86%. Regarding `O=C(/C=C/c1ccccc1)OC1CN2CCC1CC2` (stereo unspecified), the inhibition was inactive: -1.22%. For `Cc1ccc(S(=O)(=O)N(CCCN)CCCc2c(C)nc(N)[nH]c2=O)cc1`, the inhibition is inactive: 1.63%.

For `O=P1(Nc2ncccn2)COc2ccccc2OC1`, the inhibition is inactive: 0.66%.

Consider `Nc1cccc([As](=O)(O)c2ccccc2)c1`, for which the inhibition is inactive: -8.43%. With `NS(=O)(=O)c1cccc(NC(=O)COC(=O)C(O)(c2ccccc2)c2ccccc2)c1`, the inhibition was inactive: -0.93%. Regarding `O=P1(Nc2ccc(Br)cn2)COc2ccccc2OC1`, the inhibition was inactive: 0%. With `Cc1ccc(OCC(=O)OC2CN3CCC2CC3)cc1` (stereo unspecified), the inhibition was inactive: -0.24%. In the case of `O=[As](O)(c1cccs1)c1cccs1`, the inhibition is inactive: 1.76%.

The term inhibition denotes the drop in the measured response relative to a control, in per cent.
